Like-named read-outs stand apart in the source and are kept apart here.
Test system: Staphylococcus aureus SA-1199B
Type: cell-based
Text: For purposes of comparison, compound 1 was included as a reference.

CN1c2c(-c3ccc(F)cc3)n[nH]c2-c2ccccc2S1(=O)=O [Compound 12, 3‐(4‐Fluorophenyl)‐4‐methyl‐1,4‐dihydropyrazolo[4,3‐c][1,2]benzothiazine 5,5‐dioxide]
N° fold CPX MIC reduction (EPI at 3.12 µg/mL): 2 fold | N° fold CPX MIC reduction (EPI at 12.5 µg/mL): 4 fold

Reference: publication PMC12089509, “NorA Efflux Pump Inhibitors: Expanding SAR Knowledge of Pyrazolo[4,3‐c][1,2]benzothiazine 5,5‐Dioxide Derivatives” (Archiv Der Pharmazie, 2025)
